These are literature values, as cited in patent US20250235417A1, “Compositions for acute and chronic wounds” (DEBx Medical Holding B.V., priority 2021, published 2025).

As usually defined, the pKa is the negative logarithm of the acid dissociation constant.

The conditions of this series: cited from earlier work.

With Phenol sulphonic acid (o, m, p), the pKa is reported as less than −3.
